System: NC(=O)OC[C@@H]1[C@H](NC(=O)/C(=N\OCC(=O)O)c2csc(N)n2)C(=O)N1S(=O)(=O)O
Test: purified protein, by the assay type
Conditions: other: hydrolysis by purified KPC-2, 50 mM sodium phosphate pH 7.0, 0.1 mg/ml BSA, 37° C., OD 318 nm

purified KPC-2 β-lactamase (Klebsiella pneumoniae)
Km: 602.7 µM
Vmax: 20.3 µM/min
kcat: 0.9 s⁻¹
kcat/Km: 1500 M⁻¹ s⁻¹

Source: patent US20140128364A1, “THERAPEUTIC USES OF TIGEMONAM AND CARUMONAM” (priority 2012, published 2014)
